The text below walks through data of patent publication US8969336B2, “Diamino heterocyclic carboxamide compound” (Astellas Pharma Inc., priority 2009, dated 2015).

Chains of the proteins cited; added tags and fusions are not shown. A line that says so, or that is headed by a name, gives the form on record, which may keep a tag or linker.
UniProt Q9UM73, other isoform, or with tags, fused parts or gaps: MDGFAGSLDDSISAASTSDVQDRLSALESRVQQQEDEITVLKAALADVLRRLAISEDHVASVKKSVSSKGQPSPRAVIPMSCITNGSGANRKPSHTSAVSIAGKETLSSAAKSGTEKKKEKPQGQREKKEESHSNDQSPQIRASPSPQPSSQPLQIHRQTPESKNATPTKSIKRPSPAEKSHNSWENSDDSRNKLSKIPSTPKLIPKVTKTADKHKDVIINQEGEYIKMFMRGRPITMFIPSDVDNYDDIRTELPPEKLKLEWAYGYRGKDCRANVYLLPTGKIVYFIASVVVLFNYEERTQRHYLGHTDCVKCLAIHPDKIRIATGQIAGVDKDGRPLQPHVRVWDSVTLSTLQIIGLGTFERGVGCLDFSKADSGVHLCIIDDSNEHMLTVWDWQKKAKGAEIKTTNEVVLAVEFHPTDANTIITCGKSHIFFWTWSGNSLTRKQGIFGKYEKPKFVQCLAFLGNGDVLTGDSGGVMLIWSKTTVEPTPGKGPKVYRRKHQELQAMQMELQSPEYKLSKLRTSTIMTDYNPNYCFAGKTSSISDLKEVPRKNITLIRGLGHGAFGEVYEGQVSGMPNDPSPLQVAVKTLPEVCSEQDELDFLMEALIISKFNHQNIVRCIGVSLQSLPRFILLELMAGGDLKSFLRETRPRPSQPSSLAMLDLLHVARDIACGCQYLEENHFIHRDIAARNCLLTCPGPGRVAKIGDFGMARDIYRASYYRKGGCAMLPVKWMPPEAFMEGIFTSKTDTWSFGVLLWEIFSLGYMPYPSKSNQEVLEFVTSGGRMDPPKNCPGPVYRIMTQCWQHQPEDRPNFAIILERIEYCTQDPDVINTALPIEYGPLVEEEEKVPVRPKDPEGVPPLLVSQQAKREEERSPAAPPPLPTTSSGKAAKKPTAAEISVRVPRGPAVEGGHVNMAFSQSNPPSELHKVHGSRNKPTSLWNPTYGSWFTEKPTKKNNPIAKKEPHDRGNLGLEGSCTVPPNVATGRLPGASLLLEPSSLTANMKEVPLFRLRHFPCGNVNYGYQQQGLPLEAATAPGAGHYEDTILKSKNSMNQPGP

For this assay, the target named is EML4-ALK fusion protein v1 (Homo sapiens (Human), UniProt Q9UM73). Briefly: Inhibitory activity against the kinase activity of EML4-ALK fusion protein (HTRF KinEASE-TK). It is filed as biochemical. As to conditions: ATP 100 μM, reaction 1 hour. The text has this:
A recombinant retrovirus was created from expression plasmid FLAG-EML4-ALKv1/pMX-iresCD8 in which cDNA for EML4-ALK fusion protein v1 was integrated, and injected into mouse lymphoid cell line BA/F3 cells. Using a magnetic bead reagent for cell separation and a purification column (anti-CD8 monoclonal antibody immobilized on magnetic beads and a MiniMACS purification column; both are products of Miltenyi Biotec Inc.), cell surface CD8-expressing cells were purified to establish EML4-ALK fusion protein v1-expressing BA/F3 cells. From the cells, EML4-ALK fusion protein v1 was purified and subjected to kinase activity evaluation. EML4-ALK fusion protein v1 was investigated for its phosphorylation activity toward a peptide substrate by using a kinase activity detection kit (HTRF KinEASE-TK; Cisbio Inc.). […] The ATP concentration used was 100 μM.
(In general: In TR-FRET formats the signal depends on donor and acceptor labels being close together.)
With `CCc1nc(C(N)=O)c(Nc2cccc(S(C)(=O)=O)c2)nc1N[C@H]1CC[C@](C)(O)CC1` [Example 110], the concentration for half-maximal inhibition (IC50) (usually the midpoint of a concentration-inhibition curve) worked out at 0.99 nM.

In the case of `CCc1nc(C(N)=O)c(Nc2cccc(N3CCN(C)CC3)c2)nc1N[C@H]1CC[C@H](O)CC1` [Example 347], the IC50 is 1.7 nM.

In turn, `CCc1nc(C(N)=O)c(Nc2ccc(N3CCOCC3)cc2)nc1N[C@H]1CC[C@H](O)CC1` [Example 357] returned an IC50 of 17 nM.

Turning to `CCc1nc(C(N)=O)c(Nc2ccc(C3CCN(C)CC3)cc2)nc1N[C@H]1CC[C@H](O)CC1` [Example 387], the midpoint of inhibition, the IC50, lay at 0.26 nM.

In turn, `CCc1nc(C(N)=O)c(Nc2ccc(N3CCC(N4CCN(C)CC4)CC3)c(C)c2)nc1NC1CCNCC1` [Example 534, 6-ethyl-3-({3-methyl-4-[4-(4-methylpiperazin-1-yl)piperidin-1-yl]phenyl}amino)-5-(piperidin-4-ylamino)pyrazine-2-carboxamide] had a 50% inhibitory concentration (IC50) of 1 nM.

In the case of `CCc1nc(C(N)=O)c(Nc2ccc(N3CCC(N4CCN(C)CC4)CC3)c(C)c2)nc1NC1CCN(C)CC1` [Example 544], half-maximal inhibition (IC50) was put at 1.9 nM.

Compound `COc1cc(Nc2nc(NC3CCOCC3)c(C(C)C)nc2C(N)=O)ccc1N1CCN(C)CC1` [Example 553] displayed an IC50 of 1.4 nM.
